The source of these data is patent US20090099087A1 (STC UNM, published 2009).

Experiment [1] addresses porcine trypsin (porcine) (UniProt P00761). Description: chromogenic (S-2251) amidolytic inhibition assay, trypsin 50 nM.
A further experiment addresses human plasmin (human) (UniProt P00747). Nature of the experiment: chromogenic (S-2251) amidolytic inhibition assay, plasmin 30 nM.

Regarding “bovine pancreatic trypsin inhibitor (BPTI) (from UniProt P00974 36-93)”, the inhibition constant Ki in experiment [1] came to 5 nM. Consider “bovine pancreatic trypsin inhibitor (BPTI) (from UniProt P00974 36-93) (other; other documents disagree on this pair)”, for which the inhibitory constant (Ki) with human plasmin (human) turned out to be 0.75 nM.

In general, Ki refers to the dissociation constant of the complex between target and ligand, obtained from inhibition or displacement. Low values mean higher affinity, high ones lower affinity.
